From PubChem BioAssay AID504845 (National Center for Advancing Translational Sciences (NCATS), 2011)
This is a selection; strong and weak results do not stand in their true shares. Records with an inconclusive call do not appear. Some salts or complexes appear as unconnected parts, following the source record. Activity calls are given as the source filed them. Calls follow the shape of the dose curve; as a rule, active = well fitted inhibition curve with a large enough effect; inconclusive = small, poorly fitted or top-dose-only effect; inactive = no such curve, though single readings can be large or run the other way.

The chains behind the UniProt entries cited, without tags or fusion partners.
UniProt P49798, whole entry: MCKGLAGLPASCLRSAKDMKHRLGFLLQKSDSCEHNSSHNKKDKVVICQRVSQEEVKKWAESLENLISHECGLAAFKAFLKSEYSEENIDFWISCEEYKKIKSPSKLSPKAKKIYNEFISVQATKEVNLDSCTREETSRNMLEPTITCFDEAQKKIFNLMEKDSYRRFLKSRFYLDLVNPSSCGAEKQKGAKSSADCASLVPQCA

Molecular target: Regulator of G-protein signaling 4 (Homo sapiens) (UniProt P49798)
Assay: Inhibitors of Regulator of G Protein Signaling (RGS) 4: qHTS; also: nearly all actives have a fitted effect of over 75% in size
Details: Transcreener GDP fluorescence polarization, RGS4-accelerated GTP hydrolysis; at 114 µM (top of the series) unless noted
Text: G-protein-coupled receptors (GPCRs) are well-established targets for drug discovery and development. Members of the "regulator of G-protein signaling" (RGS)-protein superfamily have recently emerged as critical modulators of specific GPCR signaling pathways. […] Combining specific RGS domain inhibitors with existing GPCR agonists should potentiate cellular responses and could also increase the specificity of action of existing therapeutics. Small molecule modulators of RGS domain activity should also have clinical utility in inhibiting or potentiating the actions of endogenous GPCR agonists. In particular, the diversity of RGS proteins with highly localized and dynamically regulated distributions in the human brain makes this family of proteins attractive targets for pharmacotherapy of central nervous system (CNS) disorders such as Parkinson's disease, schizophrenia, and anxiety.
This assay was used to screen the NIH Molecular Libraries Small Molecule Repository (MLSMR) in order to identify a small molecule that inhibits RGS4.
NIH Chemical Genomics Center [NCGC]
NIH Molecular Libraries Probe Centers Network [MLPCN]
Assay Submitter (PI): David Siderovski, University of North Carolina Chapel Hill (School of Medicine)
Two microliters of 500nM (2x working concentration) is dispensed into black medium-binding solid-bottom Kalypsys plates. Then with the Kalypsys pintool 23nl of control and compounds are transferred; the control compound is […] CCG-4986 (working concentration). After a 10 minute incubation at room temperature 2ul of antibody is added with the Kalypsys dispenser; (-)RGS4/Transcreener GDP solution in columns 3 and 4 which consisted of 10nM (2x working concentration) Alexa633, 20uM GTP, and 20 ug/ml GDP antibody and (+)RGS4/Transcreener GDP solution in columns 1,2, and 5 to 48 which consists of 900nM RGS4 (2x working concentration), 10nM Alexa633, 20 ug/ml GDP antibody. The plate is centrifuged at 1000 RPM for 15 seconds to remove any possible bubbles and then incubated for 5 minutes at ambient room temperature. An initial fluorescent polarization read (620 nm/688 nm) is performed on the Envision before the plate is incubated for 90 minutes at 30 deg C at a relative humidity of 80%. The plate is once more centrifuged at 1000 RPM for 15 seconds and another Envision fluorescent polarization (620 nm/688 nm) read is carried out.
% is scaled to controls: 0 for no effect and ±100 for the full control effect.

SMILES | activity change, negative = inhibition
CCC(CO)(C(=O)OC1CN2CCC1CC2)c1ccccc1 (stereo not given) | inactive: 11.7%
COc1cc(OC)cc(C(=O)NCC2(N3CCOCC3)CCCCC2)c1 | inactive: -22.8%
COc1cc(C(=O)NCC2(N3CCOCC3)CCCCC2)cc(OC)c1OC | inactive: 16.1%
COc1cccc(C(=O)N(c2cc(C)cc(C)c2)C2CCN(C(=O)OC(C)(C)C)CC2)c1 | inactive: 2.69%
CN1CCC(Nc2ccc(Cl)cc2)CC1 | inactive: 23.3%
CCOc1ncccc1C(=O)NCC1(N2CCOCC2)CCCCC1 | inactive: -14.6%
CN1CCC(Nc2ccc(F)c(Cl)c2)CC1 | inactive: -7.41%
CCCOc1ccc(C(=O)NCC2(N(C)C)CCCCC2)cc1 | inactive: -14.1%
CC(C)(C)OC(=O)N1CCC(Nc2ccccc2)CC1 | inactive: 3.73%
O=C(O)C1(Nc2ccccc2)CCN(Cc2ccccc2)CC1 | inactive: 3.48%
Cc1ccccc1NC1(C#N)CCN(Cc2ccccc2)CC1 | inactive: 3.73%
CCN1CCC(Nc2cccc(F)c2)CC1 | inactive: 2.03%
O=C(NCC1(N2CCCCC2)CCCCC1)c1ccco1 | inactive: 7.16%
CC(C)(C)c1ccc(C(=O)NCC2(N3CCOCC3)CCCCC2)cc1 | inactive: 16.6%
CN(C)c1ccc(C(=O)NCC2(N3CCCCC3)CCCCC2)cc1 | inactive: -10.9%
Cn1c(=O)[nH]cc(N(CCCl)CCCl)c1=O | inactive: -19.9%
Cc1ccccc1C(=O)NCC1(N(C)C)CCCCC1 | inactive: -13.1%
COc1cc(OC)cc(C(=O)NCC2(N3CCCCC3)CCCCC2)c1 | inactive: 1.25%
CN(C)C1(CNC(=O)c2ccc(C(C)(C)C)cc2)CCCCC1 | inactive: -1.55%
CC(=O)N(c1ccccc1)C1CCNCC1 | inactive: -3.41%
Cc1ccc(NC2(C#N)CCN(Cc3ccccc3)CC2)cc1 | inactive: 1.03%
Cc1ccc(C(=O)NCC2(N3CCCCC3)CCCCC2)o1 | inactive: 21.2%
Fc1ccccc1NC1CCN(Cc2ccccc2)CC1 | inactive: -6.83%
c1ccc(CN2CCC(Nc3ccccc3)CC2)cc1 | inactive: -18.7%

SMILES | activity change, negative = inhibition
O=C(NCC1(N2CCOCC2)CCCCC1)c1ccccc1 | inactive: 10.8%
Cc1cc(N(CCCl)CCCl)ccc1C=O | inactive: -12.6%
CCCN1CCC(Nc2cc(OC)cc(OC)c2)CC1 | inactive: -13.1%
CN(C)C1(CNC(=O)c2cccc(C#N)c2)CCCCC1 | inactive: 18.9%
O=C(NCC1(N2CCOCC2)CCCCC1)c1ccc([N+](=O)[O-])cc1 | inactive: 19.3%
CC(C)(C)OC(=O)N1CCC(N(C(=O)c2ccccc2)c2ccc(Cl)cc2)CC1 | inactive: -10.9%
N#Cc1ccc(C(=O)NCC2(N3CCCCC3)CCCCC2)cc1 | inactive: 9.27%
O=C(NCC1(N2CCOCC2)CCCCC1)c1ccccc1[N+](=O)[O-] | inactive: -3.01%
CCOC(=O)C(CC)C1=NC(C)(C)Cc2ccccc21.O=[N+]([O-])c1cc([N+](=O)[O-])c(O)c([N+](=O)[O-])c1 (stereo not given) | inactive: 15.2%
N/C(=N\O)c1c(N)no[n+]1[O-] | inactive: -15.1%
CCOC(=O)N1CCC(Nc2ccc(C)cc2)CC1 | inactive: -5.74%
CCc1cc(C(=O)NCC2(N3CCCCC3)CCCCC2)sc1C | inactive: 2.89%
O=C(OC1CN2CCC1CC2)C1c2ccccc2C=Cc2ccccc21 (stereo not given) | inactive: -15.8%
O=C(O)c1cccc(Nc2c([N+](=O)[O-])cc([N+](=O)[O-])cc2[N+](=O)[O-])c1 | inactive: -25%
O=C(NCC1(N2CCOCC2)CCCCC1)c1cc(Br)ccc1Cl | inactive: 0.463%
COc1cc(C(=O)NCC2(N3CCOCC3)CCCCC2)cc(OC)c1C | inactive: 15.8%
COc1ccc(C(=O)NCC2(N3CCOCC3)CCCCC2)cc1OC | inactive: 22.9%
CN1CCC(Nc2cccc(F)c2)CC1 | inactive: -11.2%
COc1ccc2c(c1O)-c1c(O)c(OC)cc3c1[C@H](C2)[N+](C)(C)CC3.O=[N+]([O-])c1cc([N+](=O)[O-])c([O-])c([N+](=O)[O-])c1[O-] | inactive: -4.49%
O=C(NCC1(N2CCCCC2)CCCCC1)c1cncc(Br)c1 | inactive: 6.07%
O=C(OC1CN2CCC1CC2)c1ccc([N+](=O)[O-])cc1 (stereo not given) | inactive: 6.39%
CCCCOc1ccccc1C(=O)NCC1(N2CCOCC2)CCCCC1 | inactive: 5.84%
O=C(NCC1(N2CCOCC2)CCCCC1)c1ccccc1Br | inactive: 13.5%
CCCOc1ccc(C(=O)NCC2(N(C)C)CCCCC2)cc1OC | inactive: -10.5%

SMILES | activity change, negative = inhibition
COc1ccc(CN(CCCl)CCCl)cc1Cl | inactive: -16.1%
O=[N+]([O-])c1cc([N+](=O)[O-])c(OC2CCCCC2O)c([N+](=O)[O-])c1 (stereo not given) | inactive: -19%
CN(C)c1cccc(C(=O)NCC2(N3CCCCC3)CCCCC2)c1 | inactive: 0.282%
CC(C)c1ccc(NC2CCN(C(=O)OC(C)(C)C)CC2)cc1 | inactive: -15.5%
COc1cc(OC)c(C(=O)NCC2(N(C)C)CCCCC2)cc1OC | inactive: 25.1%
O=C(NCC1(N2CCOCC2)CCCCC1)c1cc(F)c(F)cc1Cl | inactive: -11.7%
CCCOc1cccc(C(=O)NCC2(N3CCOCC3)CCCCC2)c1 | inactive: 36.8%
O=C(NCC1(N2CCCCC2)CCCCC1)c1cccc(C(F)(F)F)c1 | inactive: -12.2%
O=[N+]([O-])c1cc([N+](=O)[O-])c(NCC2CCS(=O)(=O)C2)c([N+](=O)[O-])c1 (stereo not given) | inactive: -8.41%
CN1CCN(CCOC(=O)C(O)(c2ccccc2)c2ccccc2)CC1 | inactive: -4.7%
CC(C)c1ccc(C(=O)NCC2(N3CCOCC3)CCCCC2)cc1 | inactive: -7.69%
COc1ccc(NC2CCN(C(=O)OC(C)(C)C)CC2)cc1 | inactive: 8.34%
COc1cc(C(=O)NCC2(N3CCCCC3)CCCCC2)ccc1OC(F)F | inactive: -13.1%
O=C(NCC1(N2CCOCC2)CCCCC1)c1cc(=O)[nH]c2ccccc12 | inactive: 19.5%
O=C(NCC1(N2CCCCC2)CCCCC1)c1ccc(OC(F)F)cc1 | inactive: -8.72%
CSc1ccc(C(=O)NCC2(N3CCOCC3)CCCCC2)cc1 | inactive: 7.12%
CCOc1ccc(C(=O)NCC2(N3CCOCC3)CCCCC2)cc1 | inactive: 7.21%
O=C(NCC1(N2CCCCC2)CCCCC1)c1cccc([N+](=O)[O-])c1 | inactive: 21.3%
CCN1CCC(Nc2ccc(Cl)cc2)CC1 | inactive: -21.7%
N#CC1(Nc2ccccc2)CCN(CCc2ccccc2)CC1 | inactive: -25.8%
CCOC(=O)N1CCC(Nc2cccc(C)c2)CC1 | inactive: 4.92%
COc1cc(C(=O)NCC2(N(C)C)CCCCC2)ccc1OC(F)F | inactive: 26.1%
CCOc1ccc(C)cc1CN(CCCl)CCCl | inactive: 8.68%
O=C(NCC1(N2CCOCC2)CCCCC1)c1ccc(Cl)cc1 | inactive: 8.03%

SMILES | activity change, negative = inhibition
O=C1CCN(Cc2ccccc2)CC1 | inactive: 11.2%
O=P1(N(CCCl)CCCl)SCCCS1 | inactive: -1.12%
CCCCOc1ccc(C(=O)NCC2(N3CCOCC3)CCCCC2)cc1 | inactive: 15.7%
O=C(NCC1(N2CCCCC2)CCCCC1)c1ccc(F)cc1 | inactive: 12%
COc1ccc(NC2CCN(CCc3ccccc3)CC2)c(OC)c1 | inactive: -7.52%
CCOC(=O)N1CCC(Nc2ccc(F)cc2)CC1 | inactive: 10.9%
COc1ccccc1C(=O)NCC1(N2CCOCC2)CCCCC1 | inactive: 16.7%
O=C(NCC1(N2CCOCC2)CCCCC1)c1cc2ccccc2o1 | inactive: 8.47%
O=C(NCC1(N2CCCCC2)CCCCC1)c1ccc(Cl)nc1 | inactive: -17.4%
Cc1cc(C)cc(N(C(=O)c2ccccc2)C2CCN(C(=O)OC(C)(C)C)CC2)c1 | inactive: -3.15% [at 56.9 µM]
CCOC(=O)N1CCC(Nc2ccc(OC)cc2)CC1 | inactive: -10.9%
N#CC1(Nc2ccccc2)CCN(Cc2ccccc2)CC1 | inactive: 42.2%
O=C(NCC1(N2CCCCC2)CCCCC1)c1ccc(Cl)s1 | inactive: -5.33%
O=C(OC1CN2CCC1CC2)C1c2ccccc2Oc2ccccc21 (stereo not given) | inactive: -3.66%
COc1ccc(Cl)cc1C(=O)NCC1(N2CCOCC2)CCCCC1 | inactive: -11.2%
O=C1C(O)=C([N+](=O)[O-])C(=O)C(O)=C1[N+](=O)[O-] | inactive: 0.487%
O=C(NCC1(N2CCCCC2)CCCCC1)c1ccc(=O)[nH]c1 | inactive: -5.37%
O=C(NCC1(N2CCCCC2)CCCCC1)c1cccs1 | inactive: 24%
COc1ccc(C(=O)NCC2(N3CCCCC3)CCCCC2)cc1 | inactive: -8.34%
CC(C)(C)OC(=O)N1CCC(N(C(=O)c2ccccc2)c2ccc(F)cc2)CC1 | inactive: 0.704%
COc1ccc(C(=O)NCC2(N3CCCCC3)CCCCC2)c(OC)c1OC | inactive: 15.2%
CSc1ccccc1C(=O)NCC1(N2CCCCC2)CCCCC1 | inactive: 1.4%
Cc1cccc(NC2(C#N)CCN(Cc3ccccc3)CC2)c1 | inactive: 0.798%
